In patent US20150139996A1, “METHODS AND MEANS FOR THE PRODUCTION OF IG-LIKE MOLECULES” (published 2015):

Experiments:
[1] = biological target: IgG1 heavy chain with CH3 construct 17 (S354K, Y349K) (human) [IgG part: P01857]; assay: native MS; transfection ZQ: vectors XII+XVIII co-expressed
[2] = biological target: IgG1 heavy chain with CH3 construct 65 (S354D, Y349D) (human) [IgG part: P01857]; assay: as above
[3] = biological target: IgG1 heavy chain with CH3 construct 69 (L351D, L368E) (human) [IgG part: P01857]; assay: native MS; combination 3 co-expressed (A: VH MF1337, B: VH MF1122)
[4] = biological target: IgG1 heavy chain with CH3 construct 43 (T366K) (human) [IgG part: P01857]; assay: SDS-PAGE of protein A-purified supernatant; construct expressed alone
[5] = biological target: IgG1 heavy chain with CH3 construct 62 (T394K) (human) [IgG part: P01857]; assay: native MS; transfection ZR: vectors XV+XIX co-expressed
[6] = biological target: IgG1 heavy chain with CH3 construct 66 (V397D) (human) [IgG part: P01857]; assay: as above

For “IgG1 heavy chain with CH3 construct 17 (S354K, Y349K) (from UniProt P01857-1)”, the AA found (%) [1] was 4% and the AC found (%) [2] was 51%.
Work on “IgG1 heavy chain with CH3 construct 43 (T366K) (from UniProt P01857-1)” yielded a % AB found [3] of 87% and a % half molecule [4] of 67.1%.
For “IgG1 heavy chain with CH3 construct 62 (T394K) (from UniProt P01857-1)”, the AA found (%) [5] was 20% and the AC found (%) [6] was 42%.
